In this data set the test system is MKN-28 human gastric carcinoma. The note with it: iv, 1 mg/kg, q4dx4. As for the experimental part:
Tumor fragments were inoculated on both flanks at day 0. Treatment started when tumors were just palpable. The molecule was given by oral route and intravenously according to the schedule q4d×4. During the treatment, animals were inspected every day for mortality. Physical appearance, behavior and general and local clinical signs of the mice will be observed daily. Any deviation from normality was recorded. All animals were weighed during the whole treatment period, in order to calculate the percent body weight loss due to the treatment.
Tumor volume inhibition % in treated over control tumors was evaluated 20 days after last treatment. To determine the antitumor activity of the drug, tumor diameters was measured biweekly with a Vernier caliper. The formula TV (mm^3)=[length (mm)×width (mm)^2]/2 was used, where the width and the length are the shortest and the longest diameters of each tumor, respectively.
When tumors reached a weight of about 2 g, the mice were sacrificed by cervical dislocation. LCK (log cell kill) as index of efficacy was calculated to evaluate the persistence of the effect of the molecule at the end of the treatment.

Data on one substance can be found in patent US7612081B2 (priority 2003, dated 2009).

As for “7-[(N′,N″,N′″-tert-butoxycarbonyl)-spermine-imino-methyl]-20S-camptothecin [ST2544]”, the “BWL % (body weight loss)” value was found to be 1%.
